# Yeast mating assay 2: variants of the scFv Ab-95

The measurements come from Engelhart et al. 2022 (doi:10.1038/s41597-022-01779-4) through the FLAb antibody collection.

The target is the same throughout: PDVDLGDISGINAS, from the HR2 region of SARS-CoV-2 spike.

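The starting antibody came from a phage panning campaign against this peptide. The library (AAYL52) carries one to three amino acid substitutions per variant, with no insertions or deletions. AlphaSeq pools MATa yeast showing the antibodies with MATalpha yeast showing the peptide. Pairs that bind mate more often; barcode pairs of the diploids are counted by sequencing. Each replicate has its own calibration line, from reference interactions of the BCL2 family. Each pool was mated in three replicate cultures.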

Parent: Ab-95, a human scFv built as VH, a (GGGGS)3 linker, VL. Only the CDRs of the light chain vary.
VH: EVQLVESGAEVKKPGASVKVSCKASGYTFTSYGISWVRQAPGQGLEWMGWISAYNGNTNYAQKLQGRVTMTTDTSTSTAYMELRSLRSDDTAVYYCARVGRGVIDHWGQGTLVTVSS
VL: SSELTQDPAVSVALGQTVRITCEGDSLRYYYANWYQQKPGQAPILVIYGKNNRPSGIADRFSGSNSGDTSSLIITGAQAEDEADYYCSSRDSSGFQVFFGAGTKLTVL

Substitutions are numbered in sequence along the VL above, starting at 1 (not Kabat).
Affinities are written as log10 Kd with Kd in nM; a lower number is a better binder.
Replicates are averaged; those with no signal do not enter the mean.
A pair that was not seen in that replicate is written "nd"; this usually means weak binding, but a binder can also be missed.
The list is sorted by this average, lowest first, undetected variants last.

With N33F+V97C+F98S the result was 1.10, 0.86, 1.01 (mean 0.99).
With G24I+R28S+N52K the result was 1.44, 1.22, 0.73 (mean 1.13).
With G24N+S55H+D91S the result was 2.00, 1.88, 1.78 (mean 1.89).
With K50P+S55D the result was 2.12, 2.13, 1.46 (mean 1.90).
With Y30A+Q96N+V97F the result was 2.17, 1.98, 1.59 (mean 1.91).
With E23G+P54S the result was 2.16, 2.27, 1.76 (mean 2.06).
With R90L+G94H+V97L the result was nd, nd, 2.16.
With F95L+V97E+F98H the result was 2.75, 2.51, 1.32 (mean 2.20).
With K50G+S89E+F98G the result was 2.41, 2.11, 2.49 (mean 2.34).
With S55K+F95N the result was nd, 2.35, nd.
With Y30C+P54M+G94C the result was 2.30, 2.72, 2.03 (mean 2.35).
With Y29G+P54V+R90E the result was nd, 2.69, 2.89 (mean 2.79).
With L27Q+S92M the result was 3.03, 3.22, 2.26 (mean 2.84).
With G24A+D91I+Q96N the result was 3.20, 2.92, 2.86 (mean 2.99).
With Y30S+A32H+F98V the result was 2.92, 3.45, 2.86 (mean 3.08).
With E23L+L27F the result was 2.81, 2.79, 3.63 (mean 3.08).
With S55R+D91I+Q96Y the result was 3.36, 3.01, 2.96 (mean 3.11).
With L27I+Y30M+F95E the result was 3.31, 3.23, 3.02 (mean 3.19).

Continued, with the values leading:

Result 3.62, 3.29, nd (mean 3.45), variant R28S+P54E+S93N.
Result 3.74, 4.42, 2.89 (mean 3.68), variant G24H+N33D+K50A.
Result 3.15, 4.20, 3.95 (mean 3.77), variant G49M+S55H+R90G.
Result 3.30, 3.57, 4.52 (mean 3.80), variant G24A+Q96A.
Result 3.17, 5.21, 3.06 (mean 3.81), variant Y29N+S89H.
Result 3.82, nd, nd, variant G24L+Q96V+V97Q.
Result 3.17, nd, 4.66 (mean 3.91), variant G49H+S88T+S92Y.
Result nd, 3.63, 4.30 (mean 3.96), variant D25L+K50G+G94Y.
Result 4.44, nd, 3.51 (mean 3.98), variant S26T+A32H+R90S.
Result 3.84, 4.04, 4.13 (mean 4.00), variant Y29I+G49H+N52Q.
Result 4.76, nd, 4.10 (mean 4.43), variant S26M+S88G+D91H.
Result 4.18, 5.17, nd (mean 4.67), variant R90H+S93T+Q96D.
Result nd, 4.86, nd, variant D25C+N33F+S55C.
Result 5.62, nd, nd, variant G24M+N33T+R53Y.
Result nd, nd, nd, variant R53E+S89G+G94E.
Result nd, nd, nd, variant K50I+G94L+F98L.
Result nd, nd, nd, variant G49P+N52P+G94L.
Result nd, nd, nd, variant L27A+N51K+F95C.

The 5 strongest on average among those seen in every replicate, once more:

{"changes": "N33F+V97C+F98S", "log10 Kd (nM) by replicate": "1.10, 0.86, 1.01", "mean log10 Kd (nM)": "0.99"}
{"changes": "G24I+R28S+N52K", "log10 Kd (nM) by replicate": "1.44, 1.22, 0.73", "mean log10 Kd (nM)": "1.13"}
{"changes": "G24N+S55H+D91S", "log10 Kd (nM) by replicate": "2.00, 1.88, 1.78", "mean log10 Kd (nM)": "1.89"}
{"changes": "K50P+S55D", "log10 Kd (nM) by replicate": "2.12, 2.13, 1.46", "mean log10 Kd (nM)": "1.90"}
{"changes": "Y30A+Q96N+V97F", "log10 Kd (nM) by replicate": "2.17, 1.98, 1.59", "mean log10 Kd (nM)": "1.91"}

Parent in this assay: reference entry 2.31, copy in this library 2.25.
Nonspecific signal, from three strains lacking the peptide, appeared in 28% of pairings of library AAYL52, centred on 3.91 (5% of these signals below 2.90); values are not corrected for it.